Compound activity (PubChem)
DDE Tn6 FP inh: inhibitors of Tn6 peptide binding to human fibrin DD(E) | P02675 | Fibrin DD(E) TRITC-Tn6 fluorescence polarization displacement | inhibition, % at 8.3 µM | 370,000 tested, 0.21% active | AID 720509;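 active means inhibition above a per-campaign cutoff: mean of compounds within control limits plus 3 SD, cut at about 15% in these data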;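 further: 0% = median of all compound wells on the plate and 100% = blocking peptide control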
Yeast UUG start-1: alters start codon recognition fidelity in yeast; S. cerevisiae UUG-firefly luciferase reporter, luminescence/redox ratio; activity score, % at 18.7 µM; actives 0.13% (n = 350,000); AID 602363;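 active = replicate mean at a twofold rise or more, about +100% in these data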;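 also: firefly luciferase made from a UUG start codon reports start codon fidelity; reporter light over untreated wells divided by growth signal over untreated wells; some hits fall short of that in this replicate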
Tn7 DDE FP: inhibitors of Tn7 peptide binding to human fibrin DD(E); inhibition, % at 8.3 µM; FP displacement of FITC-Tn7 peptide from fibrin DD(E); 0% = median of compound wells per plate; 370,000 tested, 0.13% active; P02675;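 active means inhibition above the mean of compounds falling within the control limits plus 3 SD of them, cut at about 14% in these data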;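 further: 0% = plate median of compound wells and 100% = 10 µM Aha-Tn7 peptide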
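Test system: human clot-derived fibrin DD(E) complex / Quantity: 2 µM final DD(E) protein / Incubation: 10 min plus 3 h, room temperature / Measured by: fluorescence polarization / Benchmarks: high control of 10 µM Aha-Tn7 peptide / Replicates: singlicate testing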
PglD DTNB: inhibitors of Campylobacter jejuni PglD acetyltransferase | purified PglD enzyme, DTNB colorimetric CoA detection | inhibition, % at 12.5 µM | 360,000 tested, 0.098% active | AID 602405; in the data active means inhibition above about 16%, passing the limit was not always enough
Yeast UUG start-2: alters UUG start codon use in yeast; AID 652061; S. cerevisiae UUG-start firefly luciferase, luminescence, 4 h; 100% means double the DMSO signal; 540 tested, under 10 active; shares compounds with Yeast UUG start-1; activation, % at 38 µM;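 active means signal increase whose fitted curve reaches an absolute level of 40 at a concentration under 10 µM; inactive means activity opposite to the expected increase, or the rest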
* hit, by the source's call; · = not tested or not shown. An excerpt weighted towards active compounds, which were near 0.45% of everything screened.

SMILES	DDE Tn6 FP inh	Yeast UUG start-1	Tn7 DDE FP	PglD DTNB	others
C[C@@H]1CCCCO[C@@H](CN(C)Cc2ccc3c(c2)OCO3)[C@H](C)CN([C@@H](C)CO)C(=O)c2cc(NC(=O)NC3CCCCC3)ccc2O1	·	5.8	·	1.2
CC(=O)NC(Cc1cc(C)ccc1C)C(=O)N1CCN(C(=O)c2ccc(Br)cc2)CC1 (stereo not given)	2.7	·	4.8	·
CC(=O)NC(Cc1cc(C)ccc1C)C(=O)N1CCN(C(=O)Nc2ccc(C(C)=O)cc2)CC1 (stereo not given)	8.1	·	14.6*	·
CC(C)N1C(=O)CCC1C(=O)N1CCCc2ccccc21 (stereo not given)	0.7	7.1	-1.2	25.0*
O=C(C1CCCCC1)N1CCCc2ccccc21	2.9	-9.9	5.6	-2.8
CCN(CC)c1ccc2nc3c4ccccc4c(=O)cc-3oc2c1	105.1*	·	5.3	·
CCN(CC)c1ccc2cc(C=O)c(=O)oc2c1	4.5	9.2	-62.7	-6.1
CC1CCN(S(=O)(=O)c2ccc(NC(=O)Cn3nnc(-c4ccccc4)n3)cc2)CC1	19.2*	-12.4	-3.7	-0.9
CO[C@H]1CN(C)C(=O)c2ccc(NS(=O)(=O)c3ccccc3F)cc2OC[C@H](C)NC[C@H]1C	·	·	·	0.7
CCOC(=O)CSc1nc2sc3c(c2c(=O)n1-c1ccccc1)CCN(C(C)C)C3	18.7*	-3.8	3.9	3.8
CCOC(=O)CSc1nc2sc3c(c2c(=O)n1-c1ccccc1)CCN(C)C3	-3.0	-11.0	-5.0	5.9
O=C1NC(=S)S/C1=C\c1cc(Cl)cc(Cl)c1O	25.4*	-26.2	-12.4	1.3
O=C1NC(=S)SC1=Cc1ccccc1Cl	-1.4	·	-2.9	·
Nc1ccn([C@@H]2O[C@H](CO)[C@@H](O)[C@@H]2O)c(=O)n1	16.1*	-5.4	15.2*	-2.3
O=C(NCC[C@@H]1CC[C@@H](NS(=O)(=O)c2ccccc2)[C@H](CO)O1)c1ccc2c(c1)OCO2	·	10.1	·	0.8
Nc1cccc(N2C(=O)c3cccc4c(N)ccc(c34)C2=O)c1	1.1	-23.9	30.0*	5.0
Nc1ccc2c3c(cccc13)C(=O)N(c1ccccc1)C2=O	10.8	·	-2.6	·
O=C1c2cccc(NCCNCCO)c2C(=O)c2cccc(NCCNCCO)c21	47.9*	·	8.8	·
COCc1cn(CC[C@@H]2CC[C@H](NC(=O)Nc3ccc(OC)cc3)[C@H](CO)O2)nn1	·	0.4	·	0.7
O=C(CSc1nc(NS(=O)(=O)c2ccccc2)cc(=O)[nH]1)Nc1cccc(C(F)(F)F)c1	0.9	-11.5	4.5	0.7
O=C(CSc1nc(NS(=O)(=O)c2ccccc2)cc(=O)[nH]1)Nc1ccc(F)cc1	-2.2	-12.7	0.9	24.9*
C[C@H](CO)N1C[C@H](C)[C@@H](CN(C)S(=O)(=O)c2cccs2)OCCCC[C@H](C)Oc2ccc(NC(=O)CCCN(C)C)cc2C1=O	·	3.4	·	2.9
CCC(=O)Nc1ccc2c(c1)C(=O)N(C)[C@H]1CC[C@H](CC(=O)O)O[C@@H]1CO2	·	-4.0	·	-1.7
O=C(COC(=O)Cc1cccs1)Nc1ccc(OC(F)(F)F)cc1	88.4*	-11.9	6.3	-2.6
O=C(C[C@H]1CC[C@H]2[C@@H](COC[C@H](O)CN2Cc2cccc(F)c2)O1)NCc1cccc(F)c1	·	·	·	-0.5
Brc1ccc(C2=CC(c3cccs3)n3ncnc3N2)cc1 (stereo not given)	4.1	-17.3	19.4*	-2.7
O=C(C1=C[C@@H](c2ccc(Br)cc2)C[C@@H](OCc2ccc(CO)cc2)O1)N1CCCC1	·	2.9	·	3.7
COCC(=O)Nc1ccc2c(c1)C(=O)N(C)C[C@@H](OC)[C@@H](C)CN(C(C)=O)[C@H](C)CO2	·	5.4	·	-0.7
CN(CC(=O)Nc1ccc(F)cc1)C(=O)COC(=O)c1ccc(=O)n(Cc2ccccc2)n1	14.8	4.9	56.4*	-1.9
Cn1c(CO)cnc1SCc1ccc(Cl)cc1	-10.0	-16.2	-2.8	26.2*
C[C@@H]1CN([C@H](C)CO)C(=O)Cc2cc(NC(=O)Cc3cn(C)c4ccccc34)ccc2O[C@H]1CN(C)Cc1ccc(C(F)(F)F)cc1	·	23.4	·	-1.0
CCn1c(CSc2nnc3ccccn23)nc2cc(C(=O)O)ccc21	20.0*	-26.7	-3.2	-0.2
CCOC(=O)Nc1ccc(NCc2ccc(F)cc2)nc1N	12.7	-6.1	22.8*	-5.2
CCOC(=O)Nc1ccc(C)cc1NC(=O)OCC	1.3	-19.5	-7.8	-0.2
COc1ccc2c3c(cccc13)C(=O)CC2	36.1*	·	21.1*	·
CC(C)n1cc(C(=O)c2ccccc2O)cc(C#N)c1=O	0.1	229.8*	-2.5	-3.7	Yeast UUG start-2=8.0
COC(=O)C[C@H]1C[C@H]2c3cc(NC(=O)Nc4ccc(OC)cc4)ccc3O[C@H]2[C@H](CO)O1	·	0.3	·	0.3
O=C(C[C@H]1C[C@H]2c3cc(NC(=O)Nc4ccc(F)cc4)ccc3O[C@H]2[C@H](CO)O1)NC1CCCCC1	·	-14.7	·	-1.0
COc1cc(CCC(=O)OCC(=O)Nc2cccc(S(=O)(=O)N(C)C)c2)cc(OC)c1OC	1.9	·	9.2	·
CCN(CC)S(=O)(=O)c1ccc(NC(=O)COC(=O)CCc2cc(OC)c(OC)c(OC)c2)cc1	-9.0	·	-1.1	·	Yeast UUG start-2=2.1
COc1nc(-c2ccccc2)ccc1-c1noc(-c2cccs2)n1	-1.8	-12.0	-3.1	2.4
COc1nc(C)ccc1-c1noc(-c2cccs2)n1	-7.5	527.9*	-4.0	-2.7	Yeast UUG start-2=-23.7
CC(C)C(=O)Nc1cccc(N2CCN(CCCN3C(=O)C4CCCCN4C3=O)CC2)c1 (stereo not given)	-5.3	105.3*	-8.7	-1.5	Yeast UUG start-2=-3.4
O=C1C2CCCCN2C(=O)N1CCCCN1CCN(c2cccc(Cl)c2)CC1 (stereo not given)	-0.9	2.0	-9.9	-3.1
COC(=O)c1ccc(COC(=O)c2ccc(CO)cc2)o1	-0.9	185.2*	3.5	0.7	Yeast UUG start-2=-0.5
Cc1noc(C)c1S(=O)(=O)N1CCCC(C(=O)Nc2cccnc2)C1 (stereo not given)	0.0	614.1*	1.8	-3.9	Yeast UUG start-2=-4.5
Cc1noc(C)c1NC(=O)NCC[C@@H]1CC[C@@H](NC(=O)c2ccccc2)[C@H](CO)O1	·	-3.4	·	3.1
O=C(c1cc(Cl)cc(Cl)c1)N1CCC2CC1c1cc(-c3ccc4c(c3)OCO4)ccc12 (stereo not given)	7.5	active	2.4	1.2	Yeast UUG start-2=9.3
COc1ccc(C#Cc2ccc3c(c2)[C@]2(C(=O)N3)[C@H](c3ccc(O)cc3)N3[C@H](c4ccccc4)[C@H](c4ccccc4)OC(=O)[C@H]3[C@@H]2C(=O)N2CCCCCCC2)cc1	·	0.0	·	-0.6
Cc1ccccc1-n1c(SCC(=O)c2cc(C)n(C)c2C)nnc1-c1cccnc1	·	·	·	·	Yeast UUG start-2=-4.7
COCCn1c(C)cc(C(=O)CSc2nnc(-c3cccnc3)n2-c2ccccc2F)c1C	2.6	7.3	4.3	-0.8
C[C@H](CO)N1C[C@H](C)[C@@H](CN(C)S(=O)(=O)c2ccc(Cl)cc2)Oc2ccc(NC(=O)CCN3CCOCC3)cc2CC1=O	·	3.8	·	-1.4
